The values below come from publication PMC5681660, “Reduced hepatitis B and D viral entry using clinically applied drugs as novel inhibitors of the bile acid transporter NTCP” (Scientific Reports, 2017).

In experiment [1] the target is T1, human NTCP (Homo sapiens, UniProt Q14973).
T1 sequence (Q14973 1-349): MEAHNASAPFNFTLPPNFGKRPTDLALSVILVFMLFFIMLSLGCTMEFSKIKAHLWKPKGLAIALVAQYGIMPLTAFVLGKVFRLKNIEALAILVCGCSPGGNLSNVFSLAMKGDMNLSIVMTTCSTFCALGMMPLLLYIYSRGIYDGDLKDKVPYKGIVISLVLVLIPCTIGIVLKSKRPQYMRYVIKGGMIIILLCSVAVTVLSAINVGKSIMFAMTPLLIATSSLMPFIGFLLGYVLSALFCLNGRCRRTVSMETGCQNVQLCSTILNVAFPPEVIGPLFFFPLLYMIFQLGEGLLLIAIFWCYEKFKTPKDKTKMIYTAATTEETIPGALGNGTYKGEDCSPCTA
In words: Screening taurocholate uptake assay (96-well, [14C]taurocholate, 10 µM drug). The settings on record: for remaining activity at 10 µM: 10 min, read-out: %NTCP activity.

Experiment [2] concerns the target T1, human NTCP. In words: Screening fluorescent competitive Myrcludex B-FITC binding assay (96-well, 10 µM drug). The following applies: for remaining activity at 10 µM: 0.5 h, read-out: %NTCP binding.
Where [3] appears, read: screening Myrcludex B-FITC binding, 10 µM drug.
[4] abbreviates: screening taurocholate uptake, 10 µM drug, Prestwick library.
The mark [5] stands for this setting: screening Myrcludex B-FITC binding, 10 µM drug, Prestwick library.

Structures can show the parent of a compound that is named as a salt. Where two headings read alike, the source gives them in different places.

As for `Cn1cnc([N+](=O)[O-])c1Sc1ncnc2nc[nH]c12` [Azathioprine], the figures for the remaining activity at 10 µM on human NTCP [1] and at human NTCP [2] were 62.1% and 101%, respectively.

With `CC(C)NCC(O)COc1ccc(CCOCC2CC2)cc1` (stereo not shown) [Betaxolol hydrochloride], the figures for the remaining activity at 10 µM on human NTCP [1] and at human NTCP [2] were 88% and 65.9%, respectively. The same compound yielded a B-score binding assay at human NTCP [2] (setting [3]) of -0.195.

Regarding `Brc1c(NC2=NCCN2)ccc2nccnc12.O=C(O)C(O)C(O)C(=O)O` [Brimondine L-Tartrate], the “%NTCP activity” value at human NTCP [1] (screen, 10 µM drug, [14C]taurocholate uptake) came out at 105.441%. Moreover, at human NTCP [2] (screen, 10 µM drug, Myrcludex B-FITC binding), the “%NTCP binding” value is on record as 73.3195%.

Take `Clc1cccc(Cl)c1N=C1NCCN1` [Clonidine hydrochloride]: the remaining activity at 10 µM on human NTCP [1] was found to be 52.8%; on human NTCP [2], 75.4%. The compound further gave a B-score binding assay at human NTCP [2] (setting [3]) of -0.588.

In the case of `Cc1c(Cl)cccc1Nc1ncccc1C(=O)O.NCCCC[C@H](N)C(=O)O` [Clonixin Lysinate], the “%NTCP activity” value on human NTCP [1] is 67.1033%. Besides, at human NTCP [2], the “%NTCP binding” value is reported as 94.4472%.

On to `COC(=O)[C@H](c1ccccc1Cl)N1CCc2sccc2C1` [Clopidogrel], for which the remaining activity at 10 µM at human NTCP [1] is 73.4%; at human NTCP [2], 54.1%.

Turning to `CN(C)CCC=C1c2ccccc2C=Cc2ccccc21` [Cyclobenzaprine hydrochloride], the values for the remaining activity at 10 µM on human NTCP [1] and at human NTCP [2] were 31.1% and 75.9%, respectively.

Regarding `O=P1(N(CCCl)CCCl)NCCCO1` (stereo not shown) [Cyclophosphamide], the results for the remaining activity at 10 µM on human NTCP [1] and at human NTCP [2] were 70.3% and 105%, respectively.

For `NCCc1ccc(O)c(O)c1` [Dopamine hydrochloride], the remaining activity at 10 µM on human NTCP [1] was 87.2%; on human NTCP [2], 132%.

In the case of `C[C@]12CC[C@H](O)C[C@@H]1CC[C@@H]1[C@@H]2CC[C@]2(C)C(=O)CC[C@@H]12` [Epiandrosterone], the figures for the remaining activity at 10 µM at human NTCP [1] and at human NTCP [2] were 47.9% and 71.2%, respectively.

As to `NC(N)=Nc1nc(CSCCC(N)=NS(N)(=O)=O)cs1` [Famotidine], the remaining activity at 10 µM was 61.3% at human NTCP [1] and 91.9% at human NTCP [2].

As to `C/C(=C(/CCO)SSCC1CCCO1)N(C=O)Cc1cnc(C)nc1N.Cl` (stereo not shown) [Fursultiamine Hydrochloride], the “%NTCP activity” value on human NTCP [1] is 80.4856%. Further, the “%NTCP binding” value on human NTCP [2] was 102.478%.

Regarding `NCCc1c[nH]cn1` [Histamine dihydrochloride], the remaining activity at 10 µM on human NTCP [1] stood at 116%; at human NTCP [2], 50.6%. This compound also displayed a B-score binding assay at human NTCP [2] (setting [3]) of -0.808.

Regarding `NNc1nncc2ccccc12` [Hydralazine hydrochloride], the remaining activity at 10 µM at human NTCP [1] is 113%; on human NTCP [2], 67.2%. At human NTCP [2] (setting [3]), this compound showed a B-score binding assay of 2.175.

Turning to `c1ccc([C@H]2CN3CCSC3=N2)cc1` [Levamisole hydrochloride], the remaining activity at 10 µM was 123% at human NTCP [1] and 86.6% at human NTCP [2].

For the compound `CNCCCC12CCC(c3ccccc31)c1ccccc12` [Maprotiline hydrochloride], the remaining activity at 10 µM came out at 54.4% at human NTCP [1] and 49.3% at human NTCP [2].

As for `CN1CCCCC1CCN1c2ccccc2Sc2ccc([S+](C)[O-])cc21` (stereo not shown) [Mesoridazine besylate], the figures for the remaining activity at 10 µM at human NTCP [1] and at human NTCP [2] were 61.5% and 66.1%, respectively.

Take `Cc1cccc(C)c1OCC(C)N` (stereo not shown) [Mexiletine hydrochloride]: the remaining activity at 10 µM is 40.4% at human NTCP [1] and 87.2% at human NTCP [2]. In addition, the B-score binding assay on human NTCP [2] (setting [3]) was determined as 0.381.

As to `CN(C/C=C/c1ccccc1)Cc1cccc2ccccc12` [Naftifine hydrochloride], the remaining activity at 10 µM on human NTCP [1] stood at 113%; at human NTCP [2], 105%.

Turning to `COc1ccc2cc([C@H](C)C(=O)O)ccc2c1` [Naproxen], the remaining activity at 10 µM at human NTCP [1] amounted to 98.3%; on human NTCP [2] it was 111%.

Take `O=C(O)c1cccnc1` [Niacin]: the remaining activity at 10 µM at human NTCP [1] stood at 66.4%; at human NTCP [2], 102%.

With `CC1CS(=O)(=O)CCN1/N=C/c1ccc([N+](=O)[O-])o1` (stereo not shown) [Nifurtimox], the values for the remaining activity at 10 µM at human NTCP [1] and on human NTCP [2] were 76.5% and 96.2%, respectively.

As for `CS(=O)(=O)Nc1ccc([N+](=O)[O-])cc1Oc1ccccc1` [Nimesulide], the remaining activity at 10 µM at human NTCP [1] was found to be 66.6%; at human NTCP [2], 75.9%.

As to `CNCCC=C1c2ccccc2CCc2ccccc21` [Nortriptyline hydrochloride], the results for the remaining activity at 10 µM at human NTCP [1] and on human NTCP [2] were 30.5% and 94.2%, respectively.

Consider `C=CCOc1ccccc1OCC(O)CNC(C)C` (stereo not shown) [Oxprenolol hydrochloride], for which the remaining activity at 10 µM at human NTCP [1] was found to be 131%; at human NTCP [2], 71.4%.

Take `NNCCc1ccccc1` [Phenelzine sulfate]: the figures for the remaining activity at 10 µM at human NTCP [1] and on human NTCP [2] were 104% and 62.4%, respectively.

`CCCN[C@H]1CCc2nc(N)sc2C1` [Pramipexole dihydrochloride]: the remaining activity at 10 µM was determined as 36.2% at human NTCP [1] and 110% at human NTCP [2].

Take `CC(C)c1cccc(C(C)C)c1O` [Propofol]: the remaining activity at 10 µM on human NTCP [1] was 29.6%; at human NTCP [2], 90.8%.

Turning to `CCCc1cc(=O)[nH]c(=S)[nH]1` [Propylthiouracil], the remaining activity at 10 µM is 46.4% at human NTCP [1] and 78.9% at human NTCP [2].

Take `CNCCCC1c2ccccc2C=Cc2ccccc21` [Protriptyline hydrochloride]: the remaining activity at 10 µM is 65.8% on human NTCP [1] and 83.3% at human NTCP [2].

Turning to `CN1CCCN=C1/C=C/c1cccs1.O=C(O)C(O)C(O)C(=O)O` [Pyrantel tartrate], the “%NTCP activity” value on human NTCP [1] (setting [4]) worked out at 138.554%. In addition, on human NTCP [2] (setting [3]), the B-score binding assay is 0.037. Also, the “%NTCP binding” value at human NTCP [2] (setting [5]) worked out at 69.5764%.

Turning to `OCCOCCN1CCN(C2=Nc3ccccc3Sc3ccccc32)CC1` [Quetiapine hemifumarate], the remaining activity at 10 µM on human NTCP [1] worked out at 50.2%; at human NTCP [2], 70.7%. The same compound showed a B-score binding assay on human NTCP [2] (setting [3]) of -0.15.

Regarding `CNCC(O)c1ccc(O)c(O)c1` (stereo not shown) [Racepinephrine HCl], the remaining activity at 10 µM on human NTCP [1] is 57.1%; on human NTCP [2] it was 104%. At human NTCP [2] (setting [3]), this compound displayed a B-score binding assay of 1.418.

For the compound `C#CCN[C@@H]1CCc2ccccc21` [Rasagiline], the remaining activity at 10 µM worked out at 102% on human NTCP [1] and 57% on human NTCP [2].

As to `Nc1ccc(S(=O)(=O)Nc2ncccn2)cc1` [Sulfadiazine], the remaining activity at 10 µM on human NTCP [1] came out at 151%; at human NTCP [2], 112%.

As to `Nc1c2c(nc3ccccc13)CCCC2` [Tacrine hydrochloride], the remaining activity at 10 µM on human NTCP [1] turned out to be 51.7%; on human NTCP [2] it was 58.2%.

Regarding `CN1C(C(=O)Nc2ccccn2)=C(O)c2sccc2S1(=O)=O` [Tenoxicam], the remaining activity at 10 µM at human NTCP [1] was 55.2%; on human NTCP [2] it was 78.6%. This compound registered a B-score binding assay at human NTCP [2] (setting [3]) of -0.123.

Take `Cc1ncc(C[n+]2csc(CCO)c2C)c(N)n1` [Thiamine hydrochloride]: the remaining activity at 10 µM came out at 109% at human NTCP [1] and 84.4% at human NTCP [2].

With `Clc1ccc2nsnc2c1NC1=NCCN1` [Tizanidine HCl], the remaining activity at 10 µM on human NTCP [1] came to 87.2%; at human NTCP [2] it was 78.1%.

For `N[C@@H]1C[C@H]1c1ccccc1` [Tranylcypromine hydrochloride], the remaining activity at 10 µM on human NTCP [1] was 115%; at human NTCP [2], 83.2%.

For `Cl.OC(CCN1CCCCC1)(c1ccccc1)C1CCCCC1` (stereo not shown) [Trihexyphenidyl-D,L Hydrochloride], the “%NTCP activity” value at human NTCP [1] (setting [4]) came to 121.392%. Also, the B-score binding assay at human NTCP [2] (setting [3]) is reported as -0.957. Further, the “%NTCP binding” value on human NTCP [2] (setting [5]) was 74.7688%.

As to `CCOc1ccccc1OCC1CNCCO1` (stereo not shown) [Viloxazine hydrochloride], the figures for the remaining activity at 10 µM at human NTCP [1] and on human NTCP [2] were 85.6% and 104%, respectively.
